# Values quoted from earlier work in patent US10927398B2, “Compositions for CYP450 phenotyping using saliva samples” (Concordia University, Inc., priority 2015, dated 2021).
# Test system: CYP450 enzymes
# Settings: cited from earlier work
compound,measurement,value
CN(C)CCCN1c2ccccc2CCc2ccccc21 [Imipramine],METABOLISM,"2C19, 2D6"
